Values quoted from earlier work as cited in US20240207217A1, “IMPROVED TREATMENT METHODS FOR CABAZITAXEL” (ORBICULAR PHARMACEUTICAL TECHNOLOGIES PRIVATE LIMITED, priority 2020, published 2024).

Columns and labels:
[1] = 3-hour paclitaxel infusion at 175 mg/m^2; average
[2] = tested on: complement; conditions: alone, at equivalent concentrations

For “polyoxyethylated castor oil [Cremophor EL]”, the “Maximal serum concentration of Cremophor EL” value [1] is given as 3 mg/mL and the “Complement activation compared with paclitaxel/Cremophor EL” value [2] is given as “to the same extent”.
